# Measured affinities in a library of Ab-14 light chain variants

Data: MIT Lincoln Laboratory AlphaSeq set, Li et al. 2023, doi:10.1038/s41467-023-39022-2, as distributed in FLAb.

Antigen: PDVDLGDISGINAS, a 14-residue peptide of the SARS-CoV-2 spike HR2 region.

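Phage display of a naive human antibody library on the peptide gave the parent. This is the validation round: designs drawn from the data on random variants, tested in the same kind of assay. Group labels follow the data file (Ctrl: baseline library sampled from a position-specific scoring matrix, with some repeated check sequences; Rand: our label for a block that the file lists under HC and that is probably the random mutants of the ten best first-round binders; GP: Gaussian process model; HC: hill climbing; Gen: genetic algorithm; Gibbs: Gibbs sampling; a sequence that several methods proposed may carry one label only). The assay is AlphaSeq: two haploid yeast populations carry antibody and antigen on their surface. Pairs that bind mate more often; barcode pairs of the diploids are counted by sequencing. Scores were corrected for input abundance and mapped to Kd with protein pairs of known affinity run in the same pool. The assay was run in six technical replicates.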

Each scFv is VH, three GGGGS repeats, VL, as in the parent Ab-14, and differs from it in the CDRs of the light chain only.
VH: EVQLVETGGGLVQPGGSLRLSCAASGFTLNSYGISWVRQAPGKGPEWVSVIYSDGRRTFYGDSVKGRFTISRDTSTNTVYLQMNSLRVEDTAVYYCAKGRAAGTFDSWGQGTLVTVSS
VL: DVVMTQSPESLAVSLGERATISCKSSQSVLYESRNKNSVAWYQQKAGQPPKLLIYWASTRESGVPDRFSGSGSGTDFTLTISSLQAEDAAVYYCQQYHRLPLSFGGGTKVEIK

Variants are written as CDR1, CDR2 and CDR3 of the light chain (limits as in the source). Parent: KSSQSVLYESRNKNSVA, WASTRES, QQYHRLPLS.
This list holds designs with at most six substitutions.
Affinities are written as log10 Kd with Kd in nM; a lower number is a better binder.
Replicates are averaged; those with no signal do not enter the mean.
A pair that was not seen in any replicate is written "nd"; this usually means weak binding, but a binder can also be missed.
Entries are sorted by rising average, undetected variants last.
As a blank, each scFv also met three strains without target: over all light chain designs, 4% of these pairings were detected, typically at 2.64 and seldom below 1.59.
The parent sequence was in this pool as ten entries: three were never detected, three once, and four in most replicates, with averages from 0.34 to 2.37.
The authors' rule: three or more of the six replicates give a measured affinity, fewer mean a poor binder.
A sequence measured in both rounds can read differently, since the two assays cover different ranges.

| CDR-L1 | CDR-L2 | CDR-L3 | group | mean, log10 nM | detected |
|---|---|---|---|---|---|
| KLSQSNLYESRNKNNVA | EASTRES | QQYHRLPLS | GP_Gen | -0.58 | 6 of 6 |
| KLSQSMLYESRNHNNVA | AASDRES | QQYHRLPLS | GP_Gibbs | -0.57 | 6 of 6 |
| KISQSVLYESRNKNSVA | GASTRES | QQYHRLPLS | GP_Gen | -0.55 | 6 of 6 |
| KLSGSWLYESRNKNSVA | DASTRES | QQYHRLPLS | GP_Gen | -0.50 | 6 of 6 |
| KMSQSAPMESRNANSVA | NASTRES | QQYHRLPLS | GP_Gibbs | -0.41 | 6 of 6 |
| KLSESVEYESRNKNSVA | QASTRES | QQYHRLPLS | Ctrl | -0.40 | 6 of 6 |
| KSSQEYLYESRNKNSVA | GASTRES | QQYHRLPLS | GP_HC | -0.35 | 6 of 6 |
| KLSQSVPYESRNKNSVA | DASTRES | QQYHRLPLS | GP_Gen | -0.32 | 6 of 6 |
| KMSQGWLYESRNKNSVA | GASTRED | QQYHRLPLS | GP_HC | -0.30 | 6 of 6 |
| KSSQSELFESRNKNSVA | DASTRES | QQYHRLPLS | GP_HC | -0.24 | 6 of 6 |
| KLEQSIWYESRNKNSVA | NASTRES | QQYHRLPLS | GP_HC | -0.23 | 6 of 6 |
| KLQQSELYESRNKNSVA | DASQRES | QQYHRLPLS | GP_Gen | -0.23 | 6 of 6 |
| KLRQSTLYESRNKNSVA | DASTRES | QQYHRLPLS | GP_HC | -0.22 | 6 of 6 |
| KVSPSMLYESRNKNSVA | EASTRES | QQYHRLPLS | GP_Gen | -0.15 | 6 of 6 |
| KFSQSVDYETRQKNSVA | NASTRMS | QQYHRLPLS | GP_Gibbs | -0.13 | 6 of 6 |
| HLSWVNLYESRNKNSVA | NASTRES | QQYHRLPLS | GP_HC | -0.11 | 6 of 6 |
| KLRMSTLYESRNKNSVA | EASTRES | QQYHRLPLS | GP_HC | -0.10 | 6 of 6 |
| KLMPSVLYESRNKNSVA | NASYREQ | QQYHRLPLS | GP_Gibbs | -0.09 | 6 of 6 |
| KLSQSVLYESRNWNSVA | NASTRLS | QQYHRLPLS | GP_Gen | -0.08 | 6 of 6 |
| KLSQSHLYESRNKNNVA | HASTRES | QQYHRLPLS | GP_Gen | -0.07 | 6 of 6 |
| KVSQSWLYESRNKNSVA | NASTRCS | QQYHRLPLS | GP_Gen | -0.07 | 6 of 6 |
| KVSQSNLYESRNKNSVA | DASQRES | QQYHRLPLS | GP_Gen | -0.03 | 6 of 6 |
| KWSQSVLYDSRNKNSVA | AASTREM | QQYHRLPLS | Ctrl | -0.03 | 6 of 6 |
| KFQWSNLYESRNKNSVA | NASTRES | QQYWRLPLS | GP_Gibbs | 0.00 | 6 of 6 |
| KLSQSVPYEQRNKNSVA | EASTRES | QQYHRLPLS | GP_Gen | 0.05 | 6 of 6 |
| KISQGVLYESRNKNSVA | GASTRES | QQYHRLPLS | GP_HC | 0.08 | 6 of 6 |
| KVQQSHLYESRNKNSVA | NASTRLS | QQYHRLPLS | GP_Gen | 0.08 | 6 of 6 |
| KSSMSFLYESRNKNSVA | GASTRES | QQYHRLPLS | GP_HC | 0.09 | 6 of 6 |
| KLLQSMLYESRNKNSVA | NASQRES | QQYHRLPLS | GP_Gen | 0.13 | 6 of 6 |
| KDSWSVLFESRNKNSVA | DASTRSS | QQYHRLPLS | GP_HC | 0.13 | 6 of 6 |
| KLSQSVLYEMRVKNSVA | QAVTRES | QQYHRLPLS | GP_Gibbs | 0.20 | 6 of 6 |
| KLSQSKLYESRNKNSVA | EASQRES | QQYHRLPLS | GP_Gen | 0.21 | 6 of 6 |
| KESQSWWYESRNKNSVA | GASTRES | QQYHRLPLS | GP_HC | 0.21 | 6 of 6 |
| KMSQSFLMEMRNGNSVA | NASTRES | QQYHRLPLS | GP_Gibbs | 0.22 | 6 of 6 |
| KLSQGVLYESRWKNSVA | GASTRES | QQYHRLPLS | GP_HC | 0.28 | 6 of 6 |
| KVSQSVLYESRMKNSVA | DASTRCS | QQYHRLPLT | GP_HC | 0.29 | 6 of 6 |
| KLSQSELYESRNKNSVA | NASTREE | QQYHRLPLS | GP_Gen | 0.29 | 6 of 6 |
| KYLQSVLYESRNKNSVA | HASTRED | QQYHQLPLS | GP_HC | 0.31 | 6 of 6 |
| KVQQSWLYESRNKNSVA | NASTRLS | QQYHRLPLS | GP_Gen | 0.39 | 6 of 6 |
| KLSLSVLLESRNVNAVA | EASTRES | QQYHRLPLS | GP_Gibbs | 0.50 | 6 of 6 |
| KVSQSVLYESGTKNSVA | NASLRES | QQYHRLPLS | GP_HC | 0.51 | 6 of 6 |
| HSSPSKLYESRNKNSVA | NASTRES | QQYHRLPLS | GP_HC | 0.55 | 6 of 6 |
| KSRQSVLYEYMNKNSVA | AASTRES | QQYHRLPLS | Ctrl | 0.66 | 6 of 6 |
| KVEQSWLYESRNKNSVA | NASQRES | QQYHRLPLS | GP_Gen | 0.98 | 6 of 6 |
| KSSQSVLQESVNKNSVA | AASTRES | GQYHRLPLS | Ctrl | 1.34 | 6 of 6 |
| KSSQSVLYESRTKNSVA | WASTRES | QQYHRLPLS | Ctrl | 1.49 | 6 of 6 |
| KSSQSILYESRNANSVA | WASTRES | FQYQRLPLS | Ctrl | 1.55 | 6 of 6 |
| KLSQSVLYESHQKNSVA | WASTRES | QQYHRLPLS | Ctrl | 1.58 | 5 of 6 |
| KSSQSVLYTSRNQNSVA | FASTRES | QQYHRLPLS | Ctrl | 1.61 | 6 of 6 |
| KSPQSVLQESRNKNSVA | WASTRET | QDYHRLPLS | Ctrl | 1.64 | 6 of 6 |
| KLSQSVLYESNNKNSVA | WASTRES | QQYHRLPLS | Ctrl | 1.71 | 6 of 6 |
| KSSQKVLYESRNKNSVA | WASLRES | QQYHRLPLY | Ctrl | 1.77 | 1 of 6 |
| KSSQSVLYESANKNSVA | KASTRHS | QQGHILPLS | Ctrl | 1.92 | 6 of 6 |
| KSSQSVVYEKQNKNSVA | WASTRES | QQYHRLPLS | Ctrl | 1.98 | 6 of 6 |
| KQSQSVLYDSRNHNSVA | WASTRES | QQYHRLPLG | Ctrl | 2.13 | 1 of 6 |
| KLSQSVLYESRNKNSVA | WASLRES | QQYHHLPLS | Ctrl | 2.19 | 6 of 6 |
| KSSQSVLYESSNVNSVA | WASTREV | QQYHRLPVS | Ctrl | nd | 0 of 6 |
| KSSQSVLMESRNKNSVA | HASTRES | QQYHRLVLS | Ctrl | nd | 0 of 6 |
| KSSQSVLYESRNKNSVA | WVSTRQS | QQYHRLPLS | Ctrl | nd | 0 of 6 |
| KSSQSVLQESMNKNSVA | WASTRES | PQYHRLPLS | Ctrl | nd | 0 of 6 |
| KSSQSVLFEIRNKNSVA | LASTRES | QQYHRLPMS | Rand | nd | 0 of 6 |
| KSQQSVLYESQNKNSVA | GASTRES | QQIHRLPLS | Ctrl | nd | 0 of 6 |
| KSSQQVLYNSRNKNSVA | WASTRES | QQYHRLLLP | Ctrl | nd | 0 of 6 |
| KPSQSVLYEDRGKNSVA | WASTRES | QQYHRLPLS | Ctrl | nd | 0 of 6 |

3 of these entries, quoted again:

| CDR-L1 | CDR-L2 | CDR-L3 | group | mean, log10 nM | detected |
|---|---|---|---|---|---|
| KWSQSVLYDSRNKNSVA | AASTREM | QQYHRLPLS | Ctrl | -0.03 | 6 of 6 |
| KQSQSVLYDSRNHNSVA | WASTRES | QQYHRLPLG | Ctrl | 2.13 | 1 of 6 |
| KLQQSELYESRNKNSVA | DASQRES | QQYHRLPLS | GP_Gen | -0.23 | 6 of 6 |